# Laboratory results as given in PubChem BioAssay AID869 (SRMLSC, 2007).
# The entries are a selection whose mix differs from that of the whole data set. Active and inactive are the calls of the source.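 The calls were made as follows: active = inhibition over a set limit, the all-compound mean plus 3 SD, in both replicate runs; inconclusive = over that limit in just one replicate run; inactive = at or under that limit in both runs.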
# Assay: inhibitors of the yeast RAM network, pilot screen, dse1pr::URA3 reporter, 5-FOA selection (AID 869);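 also: 0% = DMSO wells with no growth and 100% = 10 µM 1-NA-PP1 with full growth; RAM network block rescues cells from 5-FOA so hits raise OD615 growth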
# Conditions: S. cerevisiae dse1pr::URA3 5-FOA growth, OD615, 2 d; at 10 µM; hits give high values; strain carries analog-sensitive mutant Cbk1 kinase
row,SMILES,inhibition
1,COC(=O)c1cc2c(s1)N=C(c1ccccc1)N(C)P2(=O)N1CCOCC1 (stereo unspecified),inactive: 1.93%
